Measurements: patent US20240116898A1, “NOVEL GLUTAMINYL CYCLASE INHIBITORS AND THE USE THEREOF IN TREATMENT OF VARIOUS DISEASES” (LTD "VALENTA-INTELLEKT", priority 2017, published 2024)

Tested on: formalin-induced acute rhinosinusitis in rats
Conditions: 0.6 mg/kg daily, day 8

## C[C@@H]1C[C@H]2[C@@H]3CCC4=CC(=O)C=C[C@]4(C)[C@@]3(F)[C@@H](O)C[C@]2(C)[C@@]1(O)C(=O)CO [Dexamethasone]
  Eosinophils in 1 μl of the nasal lavage: 0 ± 0 in 1 μl
  Leukocytes in 1 μl of the nasal lavage: 1735 ± 451*& in 1 μl
  Lymphocytes in 1 μl of the nasal lavage: 0 ± 0 in 1 μl
  Macrophages in 1 μl of the nasal lavage: 68 ± 23& in 1 μl
  Neutrophils in 1 μl of the nasal lavage: 1664 ± 433*& in 1 μl
